# Apparent affinities of Ab-14 variants for a coronavirus HR2 peptide

Target: peptide PDVDLGDISGINAS, taken from heptad repeat 2 (HR2) of SARS-CoV-2 spike.

Parent: Ab-14, a human scFv built as VH, three GGGGS repeats, VL. Only the CDRs of the heavy chain vary.
VH: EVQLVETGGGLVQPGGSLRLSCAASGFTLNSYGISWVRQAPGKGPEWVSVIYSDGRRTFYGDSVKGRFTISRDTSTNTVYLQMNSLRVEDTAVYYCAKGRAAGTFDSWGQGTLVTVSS
VL: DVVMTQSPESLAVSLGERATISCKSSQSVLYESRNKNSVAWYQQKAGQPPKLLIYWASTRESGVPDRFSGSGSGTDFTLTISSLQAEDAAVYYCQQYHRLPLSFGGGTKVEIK

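Phage display of a naive human antibody library on the peptide gave the parent. These sequences belong to a second round, designed from the earlier measurements on random variants of the parent. Group labels follow the data file (Ctrl: baseline library sampled from a position-specific scoring matrix, with some repeated check sequences; Rand: our label for a block that the file lists under HC and that is probably the random mutants of the ten best first-round binders; En: ensemble of fine-tuned language models; GP: Gaussian process model; GPLM: also part of the Gaussian process libraries; HC: hill climbing; Gen: genetic algorithm; Gibbs: Gibbs sampling; a sequence that several methods proposed may carry one label only). The assay is AlphaSeq: two haploid yeast populations carry antibody and antigen on their surface. Binding brings cells together so that they mate, and sequencing counts the barcode pairs among the diploids. Each replicate has its own calibration line, from reference interactions of the BCL2 family. There are six technical replicates.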

Changes read parent residue, position, new residue, counted from the first residue of the VH shown.
This list holds designs with at most six substitutions.
Kd is apparent (estimated from mating counts) and averaged on the log scale over replicates with a signal. Smaller is tighter.
"nd" means that the variant was in the library but no mating with the target was seen in any replicate; the authors take this as a sign of poor binding, and no number exists.
A sequence measured in both rounds can read differently, since the two assays cover different ranges.

| changes | group | apparent Kd | seen in | empty controls |
|---|---|---|---|---|
| R56K/R100Q/A101E | GP_Gen | 47 nM | 1/6 | 0/18 |
| D106M | Ctrl | 120 nM | 2/6 | 0/18 |
| T28K/G61H/R100K/A101E | GP_Gibbs | 3.6 nM | 6/6 | 0/18 |
| T28D/R56K/S63R/A101T | GPLM_Gibbs | 760 pM | 6/6 | 1/18 |
| Y52I/R57P/G61D/R100Q/A101L/F105H | Rand | nd | 0/6 | 0/18 |
| T28S/G61A/R100H/S107A | GPLM_Gen | 1.9 nM | 6/6 | 1/18 |
| T28S/S31D/F59M | GP_HC | 7.5 nM | 6/6 | 1/18 |
| T28E/N30E/G61A/R100K | GPLM_Gibbs | nd | 0/6 | 0/18 |
| S31D/G61I/D106T | GPLM_HC | nd | 0/6 | 0/18 |
| S31D/G61S/G103V/S107T | GP_HC | nd | 0/6 | 0/18 |
| S31D/T58V/K65S | Ctrl | 2.5 nM | 4/6 | 0/18 |
| F59A/R100Q/A101L | GP_HC | 68 nM | 6/6 | 0/18 |
| S31D/T58S/G61S/A101Q | GP_HC | 1.7 nM | 6/6 | 0/18 |
| T28D/G61Q/S63M/A101E | GP_Gibbs | 140 nM | 5/6 | 2/18 |
| S31E/D106C/S107T | GP_HC | nd | 0/6 | 0/18 |
| F27E/A101N | Ctrl | 290 nM | 5/6 | 0/18 |
| R100E/A101Q | Ctrl+GP_HC | 17 nM | 10/12 | 2/36 |
| T28A/S31E/G61M/A101T | GPLM_HC | 220 nM | 4/6 | 0/18 |
| T28Q/S31D/A101C/D106I | GP_HC | nd | 0/6 | 0/18 |
| T28D/S31E/S53A/G61S/R100K/S107Q | En_HC | 250 pM | 6/6 | 0/18 |
| G26K/A101W | Ctrl | nd | 0/6 | 0/18 |
| T28S/S31D/A101V | GPLM_Gen | 410 pM | 6/6 | 0/18 |
| N30D/Y32M/S63R/F105A/D106L | Rand | nd | 0/6 | 0/18 |
| T28S/F59Y/R100Q | GPLM_Gen | 4.9 nM | 6/6 | 0/18 |
| L29I/G99R/A102I | Ctrl | nd | 0/6 | 0/18 |
| S31E/G61T/S63K/A101F | GP_HC | nd | 0/6 | 0/18 |
| T28E/S31T/G61A/A101T | GPLM_Gen | 2.0 nM | 3/6 | 0/18 |
| R56Q/R100K/A101T/S107K | GP_Gibbs | 33 nM | 6/6 | 1/18 |
| S31M/S63K | Ctrl | 2.2 µM | 1/6 | 0/18 |
| F27C/S31E/Y32G/G103V/D106R/S107Q | Rand | nd | 0/6 | 0/18 |
| T28D/G61M/G103V | GP_HC | 45 nM | 1/6 | 0/18 |
| T28D/G61L/R100E | GP_Gibbs | 1.7 nM | 6/6 | 0/18 |
| T28E/R100N/A101E/S107T | GP_Gen | 1.2 nM | 5/6 | 0/18 |
| N30D/A101T/S107Q | GPLM_Gibbs | 11 nM | 5/6 | 0/18 |
| G26K/T28D/S31M/I34S/G61Q/F105W | Ctrl | nd | 0/6 | 0/18 |
| T28V/S31D/G61I/S107E | GP_HC | 41 nM | 2/6 | 0/18 |
| R100A/T104D | Ctrl | nd | 0/6 | 0/18 |
| T28E/S31E/A101T/S107Y | GP_Gibbs | 900 pM | 6/6 | 0/18 |
| T28N/S31E/S53A/G61S/R100E/S107K | En_HC | 420 pM | 6/6 | 0/18 |
| T28D/Y52Q/T58F/G103N/T104W/D106R | Rand | nd | 0/6 | 0/18 |
| T28D/A101E/T104S/S107T | GP_Gen | 6.2 nM | 6/6 | 2/18 |
| T28D/G61K/R100S | GP_Gen | 640 pM | 6/6 | 0/18 |
| F59M/G61I/R100Q | GPLM_HC | 4.2 nM | 2/6 | 0/18 |
| L29I/G61S/R100D | GPLM_HC | 4.3 nM | 6/6 | 0/18 |
| T28Q/G61T/R100E | GP_Gen | 12 nM | 6/6 | 0/18 |
| S31D/A101Y/G103L/D106I | Rand | nd | 0/6 | 0/18 |
| R56M/G61S/R100W/A101T | GP_HC | 74 nM | 3/6 | 1/18 |

A selection of 5 entries from above:

| changes | group | apparent Kd | seen in | empty controls |
|---|---|---|---|---|
| T28D/G61K/R100S | GP_Gen | 640 pM | 6/6 | 0/18 |
| T28D/G61Q/S63M/A101E | GP_Gibbs | 140 nM | 5/6 | 2/18 |
| T28A/S31E/G61M/A101T | GPLM_HC | 220 nM | 4/6 | 0/18 |
| T28D/G61M/G103V | GP_HC | 45 nM | 1/6 | 0/18 |
| S31D/T58S/G61S/A101Q | GP_HC | 1.7 nM | 6/6 | 0/18 |

Some sequences occur more than once in the pool; their replicates are pooled.
The authors averaged sequences with at least three values out of six and counted those with two or fewer as poor binders.
Background: pairings of all heavy chain designs with three empty control strains gave a value in 1% of cases (median 120 nM, 5th percentile 7.0 nM). Values in that range, when seen in few replicates, are hard to tell from nonspecific mating. The control count says in how many pairings with the empty strains this scFv gave a signal.

Values reported by Li et al. 2023, doi:10.1038/s41467-023-39022-2 (FLAb copy).